# In publication PMC10916402, “Meropenem-ANT3310, a unique β-lactam-β-lactamase inhibitor combination with expanded antibacterial spectrum against Gram-negative pathogens including carbapenem-resistant Acinetobacter baumannii” (Antimicrobial Agents and Chemotherapy, 2024):
# Protein sequences, listed by entry. Tags and fused reporters are not part of them. Residues count along the entry.
# UniProt Q9F663, 25-293 limits assumed: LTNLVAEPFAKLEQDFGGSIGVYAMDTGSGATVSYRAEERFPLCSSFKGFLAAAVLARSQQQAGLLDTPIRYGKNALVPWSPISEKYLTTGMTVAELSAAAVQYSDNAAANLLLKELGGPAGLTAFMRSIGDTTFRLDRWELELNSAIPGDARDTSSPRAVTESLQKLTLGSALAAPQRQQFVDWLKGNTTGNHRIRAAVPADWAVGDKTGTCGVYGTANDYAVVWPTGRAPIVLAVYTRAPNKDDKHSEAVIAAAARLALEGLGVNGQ
# Target: KPC-2 (Klebsiella pneumoniae, UniProt Q9F663)
# Assay: In vitro SBL inhibition assay (nitrocefin hydrolysis), IC50
# Assay type: biochemical
# Procedure: Nitrocefin (Sigma-Aldrich, St Louis, MO, USA), a chromogenic cephalosporin antibiotic (λ, 482 nm; εM, 15,000 M^−1.cm^−1), was used as a reporter substrate at 100 µM for KPC-2, OXA-23, and OXA-48, at 200 µM for OXA-24 and OXA-51, and at 50 µM for OXA-58. Enzymes were preincubated in the presence of varying concentrations of each compound (0.006 to 3000 nM, diluted twofold in dimethyl sulfoxide (DMSO) for KPC-2, OXA-23, and OXA-48 assays and 0.51 to 10,000 nM diluted threefold in DMSO for OXA-24, OXA-51, and OXA-58) for 10 min at 30°C. Nitrocefin was then added and its hydrolysis by the uninhibited enzyme fraction was followed at an absorbance wavelength of 482 nm for 10 min at 30°C using Envision UV fluorescence plate reader (Perkin Elmer, Waltham, MA, USA). Hydrolysis rate data were used to determine inhibitory activities, expressed in IC50 values [corresponding to the compound concentration (µM) required to inhibit 50% of enzymatic reaction].
smiles,measurement,value
"O=C(NC1CCNCC1)[C@@H]1CC[C@@H]2CN1C(=O)N2OS(=O)(=O)O (relative stereo) [Rel, relebactam]",IC50,17.1 nM
